Results on 28 compounds are retold here after PubChem BioAssay AID436 (Emory University Molecular Libraries Screening Center, 2006).

Sequences of proteins named here, by UniProt entry; tags and fusion partners are left off. A change or cut given only in a name is not applied to a line headed by its entry.
UniProt Q92560: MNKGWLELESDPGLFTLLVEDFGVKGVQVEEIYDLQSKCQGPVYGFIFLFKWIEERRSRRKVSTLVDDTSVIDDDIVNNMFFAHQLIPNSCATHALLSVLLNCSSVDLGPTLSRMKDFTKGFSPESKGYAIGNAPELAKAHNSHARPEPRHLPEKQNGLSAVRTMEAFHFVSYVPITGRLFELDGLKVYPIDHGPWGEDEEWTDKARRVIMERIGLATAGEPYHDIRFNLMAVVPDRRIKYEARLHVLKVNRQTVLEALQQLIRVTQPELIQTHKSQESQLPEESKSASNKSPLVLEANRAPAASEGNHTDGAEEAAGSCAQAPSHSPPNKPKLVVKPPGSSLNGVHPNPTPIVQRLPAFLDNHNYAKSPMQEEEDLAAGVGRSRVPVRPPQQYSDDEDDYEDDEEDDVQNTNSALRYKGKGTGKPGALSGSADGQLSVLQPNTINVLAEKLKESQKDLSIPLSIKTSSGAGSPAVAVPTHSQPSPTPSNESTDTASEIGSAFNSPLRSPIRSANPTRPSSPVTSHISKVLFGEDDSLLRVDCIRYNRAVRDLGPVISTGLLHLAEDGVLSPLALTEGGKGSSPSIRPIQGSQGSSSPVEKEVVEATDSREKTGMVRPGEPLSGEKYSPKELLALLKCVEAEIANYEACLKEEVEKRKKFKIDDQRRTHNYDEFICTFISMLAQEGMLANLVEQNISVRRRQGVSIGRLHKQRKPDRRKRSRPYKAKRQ

“And” between values parts separate entries of the source, which are not always exact repeats. Equal entries are not always repeated. Only a part is listed here, and it is no random draw. The source made the active and inactive calls.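 Rule for the calls: active = activity remaining at or below 50% of control, provided the compound also passes the data quality filters; inactive = the rest, including low values that fail the filters.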

This assay deals with Ubiquitin carboxyl-terminal hydrolase BAP1 (Homo sapiens) (UniProt Q92560). The assay is described as follows: BAP1 ubiquitin hydrolase activity blockers – biochemical, Ub-AMC fluorescence, kinetic, primary screen (AID 436).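 Note: 100% = DMSO wells rate and 0% = substrate alone blank rate.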 The note with it: recombinant BAP1, Ub-AMC hydrolysis fluorescence kinetic; at 20 µM; active compounds read low.
Regarding `CN(C(=O)Cc1ccc(Cl)c(Cl)c1)[C@H]1CCCC[C@@H]1N1CCCC1`, the activity remaining (% of control) is inactive: 94.3% and inactive: 102%.
In the case of `Cc1c2non([O-])c-2c(C)[n+](=O)[n+]1[O-]`, the activity remaining (% of control) was inactive: 89%.
The figure for `CCc1nc2c(n1)c1c(non1O)c1c2no[n+]1[O-]` is inactive: 96.3%.
Consider `O=C(OC1CN2CCC1CC2)c1cccc(Cl)c1` (stereo not drawn), for which the activity remaining (% of control) was inactive: 101%.
In the case of `O=P(Nc1nccs1)(c1ccccc1)c1ccccc1` it was inactive: 118%; in that of `c1nnnn1CCn1cnnn1`, inactive: 68.1%; in that of `COc1ccccc1OP(=O)(Nc1ccccn1)Oc1ccccc1OC`, inactive: 68.7%.
Take `O=P1(Nc2nc3ccc(Cl)cc3s2)COc2ccccc2O1` (stereo not drawn): the activity remaining (% of control) is inactive: 102%.
As to `CN(C(=O)Cc1ccc(Cl)c(Cl)c1)[C@@H]1CCCC[C@@H]1N1CCCC1`, the activity remaining (% of control) was inactive: 97.5%.
In the case of `CCOP(=S)(NCC(C)C)OCC` it was inactive: 56.3%; in that of `O=P(Nc1nccs1)(c1ccccc1)c1nc2ccccc2s1` (stereo not drawn), inactive: 137%; in that of `CCOP1(=S)c2c(C)nn(CCC#N)c2N=C(c2ccccc2F)N1C` (stereo not drawn), inactive: 109%.
The figure for `CCOP1(=S)c2c(C)nn(CCC#N)c2N=C(c2ccc(F)cc2)N1C` (stereo not drawn) is inactive: 90%; for `CN(C(=O)Cc1ccccc1)[C@@H]1CC[C@]2(CCCO2)C[C@H]1N1CCCC1` it is inactive: 91.3%; for `CN(C(=O)Cc1ccc(Cl)c(Cl)c1)[C@@H]1CC[C@]2(CCCO2)C[C@H]1N1CCCC1` it is inactive: 90.2%.
The figure for `Cc1cccc(OCC(=O)OC2CN3CCC2CC3)c1` (stereo not drawn) is inactive: 153%.
In the case of `O=P1(Nc2ccccn2)COc2ccccc2OC1`, the activity remaining (% of control) is inactive: 103%.
In the case of `CN(CCCl)Cc1cc(Cl)c(NC2=NCCN2)c(Cl)c1` it was inactive: 91%.
In the case of `Clc1n[nH]nc1-c1nn[nH][15n]1` it was inactive: 95.4%.
In the case of `CN(C(=O)Cc1ccc(Cl)c(Cl)c1)[C@@H]1CCCC[C@H]1N1CCCC1` it was inactive: 99.4%; in that of `Cc1nn(-c2ccccc2)c2c1P(=O)(N1CCOCC1)N(C)C(c1ccccc1)=N2` (stereo not drawn), inactive: 109%.
Regarding `O=P1(Nc2ncccn2)COc2ccccc2OC1`, the activity remaining (% of control) is inactive: 96.8%.
For `Cc1ccc(OCC(=O)OC2CN3CCC2CC3)cc1` (stereo not drawn), the activity remaining (% of control) was inactive: 183%.
As to `O=P1(Nc2ccc(Br)cn2)COc2ccccc2OC1`, the activity remaining (% of control) is inactive: 105%.
As for `COP1(=S)c2c(C)nn(CCC#N)c2N=C(c2ccc(F)cc2)N1C` (stereo not drawn), the activity remaining (% of control) is inactive: 112%.
Take `O=C(COc1ccccc1)OC1CN2CCC1CC2` (stereo not drawn): the activity remaining (% of control) was inactive: 96.1%.
The figure for `COP(=O)(OC)C(NC(=O)c1ccc(C)cc1)=C(Cl)Cl` is inactive: 164%; for `O=C(OC1CN2CCC1CC2)C12CC3CC(CC(C3)C1)C2` (stereo not drawn) it is inactive: 112%.
